The values that follow come from patent US12215460B2, “Methods of microbial control” (Clean Chemistry, Inc., priority 2015, dated 2025).

This data set in a line: Cooling tower water: ORP and oxidant half life. Format: physicochemical. To be noted: total oxidant 0.2 to 0.5 ppm Cl2, pH about 7.8-8.2.

Take chlorine: the “ORP of the cooling water” value is listed as 500-575 mV (vs SHE).
